Assay results: ChEMBL document CHEMBL1123431, “Nonquaternary cholinesterase reactivators. 4. Dialkylaminoalkyl thioesters of alpha-keto thiohydroximic acids as reactivators of ethyl methylphosphonyl- and 1,2,2-trimethylpropyl methylphosphonyl-acetylcholinesterase in vitro” (1986)

Chains of the proteins cited; added tags and fusions are not shown. Lines headed by an entry give the natural chain unless they say otherwise; changes in a name come on top.
UniProt P22303: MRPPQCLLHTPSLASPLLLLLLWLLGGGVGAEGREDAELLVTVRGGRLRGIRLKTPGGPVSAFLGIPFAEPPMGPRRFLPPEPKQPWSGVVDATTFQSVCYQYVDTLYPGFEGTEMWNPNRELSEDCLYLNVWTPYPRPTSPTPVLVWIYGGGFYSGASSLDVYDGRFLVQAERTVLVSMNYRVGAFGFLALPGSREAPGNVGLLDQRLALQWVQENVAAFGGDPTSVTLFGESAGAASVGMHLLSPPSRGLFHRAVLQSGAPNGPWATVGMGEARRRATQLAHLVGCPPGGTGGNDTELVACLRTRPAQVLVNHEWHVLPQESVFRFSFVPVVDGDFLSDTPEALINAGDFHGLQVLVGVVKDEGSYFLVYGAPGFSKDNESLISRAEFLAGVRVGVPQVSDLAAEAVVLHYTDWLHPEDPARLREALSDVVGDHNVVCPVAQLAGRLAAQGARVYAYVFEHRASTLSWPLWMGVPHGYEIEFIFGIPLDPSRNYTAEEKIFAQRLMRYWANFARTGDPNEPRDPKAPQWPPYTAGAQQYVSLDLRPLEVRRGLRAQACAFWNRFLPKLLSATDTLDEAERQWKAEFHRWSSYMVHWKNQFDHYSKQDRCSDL

How the values were obtained:
[1] = target: Acetylcholinesterase (Homo sapiens) (UniProt P22303); experiment: Reactivation of para-nitrophenyl methylphosphate (EPMP)-phosphonylated human erythrocyte AChE at pH 7.6
[2] = target: Acetylcholinesterase (Homo sapiens) (UniProt P22303); experiment: Bimolecular rate constant (kn) for reaction of the anionic (oximate) with 7.5 x 10 e-4 M acetylthiocholine (AcSCh) in 0.1 M phosphate buffer
[3] = target: Acetylcholinesterase (Homo sapiens) (UniProt P22303); experiment: Reactivation of para-nitrophenyl methylyphosphate (EPMP)-phosphonylated human erythrocyte AChE
[4] = target: Acetylcholinesterase (Homo sapiens) (UniProt P22303); experiment: Maximum reactivation for GD-inhibited human erythrocyte (RBC) AChE by oximes
[5] = target: Acetylcholinesterase (Homo sapiens) (UniProt P22303); experiment: Compound was evaluated for reactivation of para-nitrophenyl methylphosphate (EPMP)-phosphonylated human erythrocyte AChE
[6] = target: Acetylcholinesterase (Homo sapiens) (UniProt P22303); experiment: Maximum reactivation for GD-inhibited human erythrocyte (RBC) AChE by oximes; No reactivation
[7] = target: Acetylcholinesterase (Homo sapiens) (UniProt P22303); experiment: Compound was evaluated for reactivation of EPMP-Phosphorylated human AChE
[8] = target: Acetylcholinesterase (Homo sapiens) (UniProt P22303); experiment: Compound was evaluated for reactivation of EPMP-Phosphorylated human AChE of bimolecular rate constants reactivation in the limit of low concentration of oximate

SMILES: CC(C)N(CCS/C(=N\O)C(=O)c1ccc(Cl)cc1)C(C)C
- kHOX [1]: 0.813 M⁻¹ s⁻¹
- kn [2]: 0.205 M⁻¹ s⁻¹
- kOX [3]: 1.14 M⁻¹ s⁻¹

SMILES: CCN(CC)CCS/C(=N\O)C(=O)c1ccc(C#N)cc1
- kHOX [1]: 0.763 M⁻¹ s⁻¹
- kn [2]: 0.0738 M⁻¹ s⁻¹
- kOX [3]: 0.963 M⁻¹ s⁻¹

SMILES: COc1ccc(C(=O)/C(=N/O)SCC[N+](C)(C)C)cc1
- kHOX [1]: 0.39 M⁻¹ s⁻¹
- kn [2]: 0.877 M⁻¹ s⁻¹
- Rmax [4]: 5.6%
- kOX [3]: 0.895 M⁻¹ s⁻¹

SMILES: Cc1ccc(C(=O)/C(=N/O)SCC[N+](C)(C)C)cc1
- kHOX [1]: 0.683 M⁻¹ s⁻¹
- kn [2]: 0.387 M⁻¹ s⁻¹
- kOX [3]: 1.32 M⁻¹ s⁻¹

SMILES: CC[N+](C)(CC)CCS/C(=N\O)C(=O)c1ccc(Cl)cc1
- kHOX [1]: 2.47 M⁻¹ s⁻¹
- kn [2]: 0.253 M⁻¹ s⁻¹
- Rmax [4]: 59.4%
- kOX [3]: 3.38 M⁻¹ s⁻¹

SMILES: C[N+](C)(C)CCS/C(=N\O)C(=O)c1ccc(Cl)cc1
- kn [2]: 0.155 M⁻¹ s⁻¹

SMILES: CC[N+](C)(CC)CCS/C(=N\O)C(=O)c1ccc(F)cc1
- kHOX [1]: 2.77 M⁻¹ s⁻¹
- kn [2]: 0.256 M⁻¹ s⁻¹
- kOX [3]: 4.19 M⁻¹ s⁻¹

SMILES: CCN(CC)CCS/C(=N\O)C(=O)c1ccc(Br)cc1
- kHOX [1]: 0.978 M⁻¹ s⁻¹
- kn [2]: 0.205 M⁻¹ s⁻¹
- Rmax [4]: 35%
- kOX [5]: 1.2 M⁻¹ s⁻¹

SMILES: CCN(CC)CCS/C(=N\O)C(=O)c1ccc(OC)cc1
- Rmax [6]: No reactivation
- kHOX [1]: 0.605 M⁻¹ s⁻¹
- kn [2]: 1.25 M⁻¹ s⁻¹
- kOX [7]: 1.28 M⁻¹ s⁻¹

SMILES: CN(C)CCS/C(=N\O)C(=O)c1ccc(Br)cc1
- kn [2]: 0.42 M⁻¹ s⁻¹
- Rmax [4]: 14.6%

SMILES: C[N+](C)(C)CCS/C(=N\O)C(=O)c1ccc(F)cc1
- kHOX [1]: 0.952 M⁻¹ s⁻¹
- kn [2]: 0.263 M⁻¹ s⁻¹
- kOX [3]: 2.23 M⁻¹ s⁻¹

SMILES: CCN(CC)CCS/C(=N\O)C(=O)c1ccccc1
- kn [2]: 0.105 M⁻¹ s⁻¹
- Rmax [4]: 2.2%

SMILES: Cc1ccc(C(=O)/C(=N/O)SCCN(C)C)cc1
- kHOX [1]: 0.638 M⁻¹ s⁻¹
- kn [2]: 0.295 M⁻¹ s⁻¹
- kOX [3]: 1.56 M⁻¹ s⁻¹

SMILES: COc1ccc(C(=O)/C(=N/O)SCCN(C)C)cc1
- Rmax [6]: No reactivation
- kOX [8]: 0.595 M⁻¹ s⁻¹
- kHOX [1]: 0.198 M⁻¹ s⁻¹
- kn [2]: 1.16 M⁻¹ s⁻¹

SMILES: C[N+](C)(C)CCS/C(=N\O)C(=O)c1ccc(Br)cc1
- kHOX [1]: 0.863 M⁻¹ s⁻¹
- kn [2]: 0.332 M⁻¹ s⁻¹
- Rmax [4]: 51.8%
- kOX [3]: 1.3 M⁻¹ s⁻¹

SMILES: CN(C)CCCS/C(=N\O)C(=O)c1ccc(Br)cc1
- kn [2]: 0.777 M⁻¹ s⁻¹
- Rmax [4]: 4.6%

SMILES: CN(C)CCS/C(=N\O)C(=O)c1ccc(Cl)cc1
- kHOX [1]: 0.647 M⁻¹ s⁻¹
- kn [2]: 0.158 M⁻¹ s⁻¹
- Rmax [4]: 8%
- kOX [3]: 1.26 M⁻¹ s⁻¹

SMILES: CCN(CC)CCS/C(=N\O)C(=O)c1ccc(Cl)cc1
- kHOX [1]: 0.75 M⁻¹ s⁻¹
- kn [2]: 0.253 M⁻¹ s⁻¹
- Rmax [4]: 28.6
- kOX [3]: 1.25 M⁻¹ s⁻¹

SMILES: CC[N+](C)(CC)CCS/C(=N\O)C(=O)c1ccc(C#N)cc1
- kHOX [1]: 1.39 M⁻¹ s⁻¹
- kn [2]: 0.073 M⁻¹ s⁻¹
- kOX [3]: 1.57 M⁻¹ s⁻¹

SMILES: CC[N+](C)(CC)CCS/C(=N\O)C(=O)c1ccc(OC)cc1
- kHOX [1]: 0.54 M⁻¹ s⁻¹
- kn [2]: 0.993 M⁻¹ s⁻¹
- Rmax [4]: 8.5%
- kOX [3]: 1.22 M⁻¹ s⁻¹

SMILES: C[n+]1ccccc1C=NO
- kHOX [1]: 11.9 M⁻¹ s⁻¹
- kn [2]: 0.84 M⁻¹ s⁻¹
- Rmax [4]: 28.2%
- kOX [3]: 41.3 M⁻¹ s⁻¹
